From ChEMBL document CHEMBL5137121, “Spiroisoxazoline Inhibitors of Acetylcholinesterase from Pseudoceratina verrucosa. Quantitative Chiroptical Analysis of Configurational Heterogeneity, and Total Synthesis of (±)-Methyl Purpuroceratate C” (J Nat Prod, 2022)

By UniProt entry, the sequences of proteins in these tests, tags left out. Residues count along the entry.
UniProt O42275, 24-633 limits assumed: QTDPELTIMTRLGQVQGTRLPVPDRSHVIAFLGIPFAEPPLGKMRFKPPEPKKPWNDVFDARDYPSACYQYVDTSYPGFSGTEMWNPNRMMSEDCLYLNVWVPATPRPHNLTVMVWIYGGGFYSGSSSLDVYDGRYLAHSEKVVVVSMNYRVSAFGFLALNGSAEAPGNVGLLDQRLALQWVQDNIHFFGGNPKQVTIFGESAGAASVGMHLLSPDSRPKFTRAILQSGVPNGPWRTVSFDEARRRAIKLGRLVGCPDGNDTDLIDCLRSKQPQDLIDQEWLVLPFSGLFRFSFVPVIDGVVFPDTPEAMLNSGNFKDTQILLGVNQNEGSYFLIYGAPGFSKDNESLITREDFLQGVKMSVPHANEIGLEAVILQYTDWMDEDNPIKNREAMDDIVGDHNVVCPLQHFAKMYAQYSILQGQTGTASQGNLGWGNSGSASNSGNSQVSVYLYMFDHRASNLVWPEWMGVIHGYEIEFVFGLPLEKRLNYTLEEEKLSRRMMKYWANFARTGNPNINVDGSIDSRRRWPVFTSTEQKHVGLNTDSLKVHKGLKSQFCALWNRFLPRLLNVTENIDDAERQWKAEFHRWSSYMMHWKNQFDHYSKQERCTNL
UniProt P81908, whole entry, looked up: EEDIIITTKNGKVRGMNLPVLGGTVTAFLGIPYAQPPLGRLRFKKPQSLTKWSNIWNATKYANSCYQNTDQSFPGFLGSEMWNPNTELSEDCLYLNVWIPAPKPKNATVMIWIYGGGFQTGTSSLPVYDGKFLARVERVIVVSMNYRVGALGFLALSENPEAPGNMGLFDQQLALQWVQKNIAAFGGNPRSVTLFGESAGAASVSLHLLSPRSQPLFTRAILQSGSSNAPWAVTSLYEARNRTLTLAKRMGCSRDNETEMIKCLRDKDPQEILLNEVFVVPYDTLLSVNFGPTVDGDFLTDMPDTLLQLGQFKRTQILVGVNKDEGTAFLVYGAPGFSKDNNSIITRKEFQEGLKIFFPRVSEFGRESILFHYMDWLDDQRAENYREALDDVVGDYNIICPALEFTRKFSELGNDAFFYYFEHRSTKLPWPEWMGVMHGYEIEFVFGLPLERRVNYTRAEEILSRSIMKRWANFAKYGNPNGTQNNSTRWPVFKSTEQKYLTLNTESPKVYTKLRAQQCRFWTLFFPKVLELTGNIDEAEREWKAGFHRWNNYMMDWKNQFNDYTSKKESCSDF

Key:
[1] = biological target: Acetylcholinesterase (Electrophorus electricus, UniProt O42275)
[2] = biological target: Cholinesterase (Equus caballus, UniProt P81908)

SMILES	pIC50 [1]	pIC50 [2]
COc1c(Br)cc(C/C(=N\O)C(=O)NCCc2nc(N)[nH]c2C(O)(Cc2cc(Br)c(OC)c(Br)c2)C(=O)NCCc2cnc(N)[nH]2)cc1Br (stereo unspecified)	< 4.00	4.85
COc1ccc(C/C(=N\O)C(=O)NCCc2cc(Br)c(OCCCN(C)C)c(Br)c2)cc1Br	6.34	5.99
CNCCCOc1c(Br)cc(CCNC(=O)/C(Cc2ccc(OC)c(Br)c2)=N/O)cc1Br	5.27	5.57

pIC50: −log10 of the molar value.
